Reference: ChEMBL document CHEMBL1125805, “Cholecystokinin antagonists: (R)-tryptophan-based hybrid antagonists of high affinity and selectivity for CCK-A receptors” (J Med Chem, 1991)

Protein sequences, listed by entry. Tags and fused reporters are not part of them.
UniProt Q63931, whole entry: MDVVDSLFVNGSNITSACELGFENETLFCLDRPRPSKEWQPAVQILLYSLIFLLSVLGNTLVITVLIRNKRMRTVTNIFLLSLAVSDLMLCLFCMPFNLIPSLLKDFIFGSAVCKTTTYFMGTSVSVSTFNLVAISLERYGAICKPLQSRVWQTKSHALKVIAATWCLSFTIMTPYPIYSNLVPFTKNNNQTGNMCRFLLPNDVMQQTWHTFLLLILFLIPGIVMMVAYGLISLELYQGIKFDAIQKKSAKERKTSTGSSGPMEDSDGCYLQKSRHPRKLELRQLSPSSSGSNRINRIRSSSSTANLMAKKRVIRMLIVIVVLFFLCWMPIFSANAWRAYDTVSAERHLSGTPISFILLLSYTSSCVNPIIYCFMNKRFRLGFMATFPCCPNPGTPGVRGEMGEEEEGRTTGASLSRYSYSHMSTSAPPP

Molecular target: Cholecystokinin receptor type A (Cavia porcellus, UniProt Q63931)
Test: Inhibition of [125I]Bolton-Hunter CCK-8 binding to cholecystokinin type A receptor in guinea pig pancreatic membranes.
Format: cell membranes

CCCCCN(CCCCC)C(=O)C(Cc1c[nH]c2ccc(OCc3ccccc3)cc12)NC(=O)c1cnc2ccccc2c1 (stereo unspecified)
IC50: 67 nM
